# How the values were obtained:
# Assay type in all cases: binding
# Conditions in all cases: Compound Concentration 10 µM
# panel of 442 kinases [1] = target: T1, panel of 442 kinases (Homo sapiens, UniProt Q9NWZ3)
# T1 construct: purchased KINOMEscan
# Excerpt: (§1) We assessed the selectivity of members of this scaffold using the KINOMEscan methodology across a near comprehensive panel of 442 kinases [[18,27]].
# panel of 442 kinases [2] = target: T2, panel of 442 kinases (Homo sapiens, UniProt Q9BUB5)
# T2 construct: purchased KINOMEscan
# Excerpt: as §1
# panel of 442 kinases [3] = target: T3, panel of 442 kinases (Homo sapiens, UniProt P08069)
# T3 construct: purchased KINOMEscan
# Excerpt: as §1
# panel of 442 kinases [4] = target: T4, panel of 442 kinases (Homo sapiens, UniProt Q8IW41)
# T4 construct: purchased KINOMEscan
# Excerpt: as §1
# panel of 442 kinases [5] = target: T5, panel of 442 kinases (Homo sapiens, UniProt Q14004)
# T5 construct: purchased KINOMEscan
# Excerpt: as §1
# panel of 442 kinases [6] = target: T6, panel of 442 kinases (Homo sapiens, UniProt P50613)
# T6 construct: purchased KINOMEscan
# Excerpt: as §1
# panel of 442 kinases [7] = target: T7, panel of 442 kinases (Homo sapiens, UniProt P36888, D835H)
# T7 construct: purchased KINOMEscan
# Excerpt: as §1
# panel of 442 kinases [8] = target: T8, panel of 442 kinases (Homo sapiens, UniProt Q9C098)
# T8 construct: purchased KINOMEscan
# Excerpt: as §1
# panel of 442 kinases [9] = target: T9, panel of 442 kinases (Homo sapiens, UniProt Q9Y616)
# T9 construct: purchased KINOMEscan
# Excerpt: as §1
# panel of 442 kinases [10] = target: T10, panel of 442 kinases (Homo sapiens, UniProt P51956)
# T10 construct: purchased KINOMEscan
# Excerpt: as §1
# panel of 442 kinases [11] = target: T11, panel of 442 kinases (Homo sapiens, UniProt P15056, V600E)
# T11 construct: purchased KINOMEscan
# Excerpt: as §1
# panel of 442 kinases [12] = target: T12, panel of 442 kinases (Homo sapiens, UniProt P00519, Y253F)
# T12 construct: purchased KINOMEscan
# Excerpt: as §1
# panel of 442 kinases [13] = target: T13, panel of 442 kinases (Homo sapiens, UniProt P10721, A829P)
# T13 construct: purchased KINOMEscan
# Excerpt: as §1
# panel of 442 kinases [14] = target: T14, panel of 442 kinases (Homo sapiens, UniProt Q8IY84)
# T14 construct: purchased KINOMEscan
# Excerpt: as §1
# panel of 442 kinases [15] = target: T15, panel of 442 kinases (Homo sapiens, UniProt Q16566)
# T15 construct: purchased KINOMEscan
# Excerpt: as §1
# panel of 442 kinases [16] = target: T16, panel of 442 kinases (Homo sapiens, UniProt O96013)
# T16 construct: purchased KINOMEscan
# Excerpt: as §1
# panel of 442 kinases [17] = target: T17, panel of 442 kinases (Homo sapiens, UniProt Q5VT25)
# T17 construct: purchased KINOMEscan
# Excerpt: as §1
# panel of 442 kinases [18] = target: T18, panel of 442 kinases (Homo sapiens, UniProt Q15375)
# T18 construct: purchased KINOMEscan
# Excerpt: as §1
# panel of 442 kinases [19] = target: T19, panel of 442 kinases (Homo sapiens, UniProt P14616)
# T19 construct: purchased KINOMEscan
# Excerpt: as §1
# panel of 442 kinases [20] = target: T20, panel of 442 kinases (Homo sapiens, UniProt P17948)
# T20 construct: purchased KINOMEscan
# Excerpt: as §1
# panel of 442 kinases [21] = target: T21, panel of 442 kinases (Homo sapiens, UniProt Q16832)
# T21 construct: purchased KINOMEscan
# Excerpt: as §1
# panel of 442 kinases [22] = target: T22, panel of 442 kinases (Homo sapiens, UniProt P00519, T315I)
# T22 construct: purchased KINOMEscan
# Excerpt: as §1
# panel of 442 kinases [23] = target: T23, panel of 442 kinases (Homo sapiens, UniProt P42345)
# T23 construct: purchased KINOMEscan
# Excerpt: as §1
# panel of 442 kinases [24] = target: T24, panel of 442 kinases (Homo sapiens, UniProt O14920)
# T24 construct: purchased KINOMEscan
# Excerpt: as §1
# panel of 442 kinases [25] = target: T25, panel of 442 kinases (Homo sapiens, UniProt P57058)
# T25 construct: purchased KINOMEscan
# Excerpt: as §1
# panel of 442 kinases [26] = target: T26, panel of 442 kinases (Homo sapiens, UniProt O94921)
# T26 construct: purchased KINOMEscan
# Excerpt: as §1
# panel of 442 kinases [27] = target: T27, panel of 442 kinases (Homo sapiens, UniProt P36888, D835Y)
# T27 construct: purchased KINOMEscan
# Excerpt: as §1
# panel of 442 kinases [28] = target: T28, panel of 442 kinases (Homo sapiens, UniProt P51812)
# T28 construct: purchased KINOMEscan
# Excerpt: as §1
# panel of 442 kinases [29] = target: T29, panel of 442 kinases (Homo sapiens, UniProt P53671)
# T29 construct: purchased KINOMEscan
# Excerpt: as §1
structure (smiles),measurement,setting,value
COc1cc(C(=O)N2CCC(N3CCN(C)CC3)CC2)ccc1Nc1ncc2c(n1)N1CCc3cccc(c31)C(=O)N2C [Compound 24],KINOMEscan: IRAK4,panel of 442 kinases [1],100
same,KINOMEscan: MKNK1,panel of 442 kinases [2],100
same,KINOMEscan: IGF1R,panel of 442 kinases [3],87
same,KINOMEscan: MAPKAPK5,panel of 442 kinases [4],100
same,KINOMEscan: CDC2L5,panel of 442 kinases [5],100
same,KINOMEscan: CDK7,panel of 442 kinases [6],100
same,KINOMEscan: FLT3(D835H),panel of 442 kinases [7],94
same,KINOMEscan: DCAMKL3,panel of 442 kinases [8],100
same,KINOMEscan: IRAK3,panel of 442 kinases [9],100
same,KINOMEscan: NEK3,panel of 442 kinases [10],99
same,KINOMEscan: BRAF(V600E),panel of 442 kinases [11],100
same,KINOMEscan: ABL1(Y253F)-phosphorylated,panel of 442 kinases [12],79
same,KINOMEscan: KIT(A829P),panel of 442 kinases [13],93
same,KINOMEscan: NIM1,panel of 442 kinases [14],100
same,KINOMEscan: CAMK4,panel of 442 kinases [15],100
same,KINOMEscan: PAK4,panel of 442 kinases [16],85
same,KINOMEscan: MRCKA,panel of 442 kinases [17],100
same,KINOMEscan: EPHA7,panel of 442 kinases [18],91
same,KINOMEscan: INSRR,panel of 442 kinases [19],97
same,KINOMEscan: FLT1,panel of 442 kinases [20],100
same,KINOMEscan: DDR2,panel of 442 kinases [21],100
same,KINOMEscan: ABL1(T315I)-nonphosphorylated,panel of 442 kinases [22],100
same,KINOMEscan: MTOR,panel of 442 kinases [23],85
same,KINOMEscan: IKK-beta,panel of 442 kinases [24],100
same,KINOMEscan: HUNK,panel of 442 kinases [25],97
same,KINOMEscan: PFTK1,panel of 442 kinases [26],100
same,KINOMEscan: FLT3(D835Y),panel of 442 kinases [27],100
same,KINOMEscan: RSK2(Kin.Dom.1-N-terminal),panel of 442 kinases [28],100
same,KINOMEscan: LIMK2,panel of 442 kinases [29],100

# — paper PMC3914206
